Key:
[1] = biological target: T1, Transcription initiation factor TFIID subunit 1 [1504-1635] (Homo sapiens, UniProt P21675); experiment: TR-FRET Binding Assay
T1 construct: 1504-1635
Procedure: After a 10 minute incubation at room temperature, biotin-ligand (0.04 uM final) was added. […] After forty minutes of equilibration at room temperature, the plates were read on an Envision instrument and IC50s calculated using a four parameter logistic model (XLFIT).

The chains behind the UniProt entries cited, without tags or fusion partners. Residues count along the entry.
UniProt P21675, 1525-1656: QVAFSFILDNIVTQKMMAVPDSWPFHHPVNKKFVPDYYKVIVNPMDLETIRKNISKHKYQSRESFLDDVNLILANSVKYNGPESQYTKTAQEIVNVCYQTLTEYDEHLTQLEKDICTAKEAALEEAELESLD
UniProt P21675, 1402-1618: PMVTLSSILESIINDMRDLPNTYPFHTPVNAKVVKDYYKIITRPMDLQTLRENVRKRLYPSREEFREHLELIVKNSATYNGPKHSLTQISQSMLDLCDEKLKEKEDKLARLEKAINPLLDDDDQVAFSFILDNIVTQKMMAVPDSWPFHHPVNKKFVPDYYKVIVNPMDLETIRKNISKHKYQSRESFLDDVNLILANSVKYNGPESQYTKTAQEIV

[2] = biological target: T2, Transcription initiation factor TFIID subunit 1 [1381-1497] (Homo sapiens, UniProt P21675); experiment: TAF1-BD1 TR-FRET Binding Assay
T2 construct: 1381-1497
Procedure: Specifically, in a 384 well ProxiPlate, TAF1-BDI (0.08 uM final) in 50 mM HEPES (pH 7.5; final), 50 mM NaCl (final), 1 mM TCEP (final), 0.1 mg/mL BSA (final), and 0.069 mM Brij-35 (final) was added either in the presence of DMSO (final 0.2% DMSO) or compound dilution series in DMSO. After a 10 minute incubation at room temperature, biotin-ligand (0.08 uM final) was added. After 10 minutes incubation at room temperature, a mixture Eu-W1024 Anti-6×His antibody (Perkin Elmer ADO 110) and SureLight Streptavidin-Allophycocyanin (SA-APC, Perkin Elmer CR130-100) were added to final concentrations of 0.2 nM antibody and 0.05 uM SA-APC, respectively. After forty minutes of equilibration at room temperature, the plates were read on an Envision instrument and IC50s calculated using a four parameter logistic model (XLFIT).

CCC(C)COC(=O)c1c(C)[nH]c2c(=O)n(C)cc(C#CC(C)(C)O)c12 (configuration not stated) [US10202378, Example 149]
IC50 [1]: 0.0194 µM
IC50 [2]: 0.101 µM
